Here are results for 7 compounds from patent publication US6066642A, “Dihydropyridine-, pyridine-, benzopyran-4-one- and triazoloquinazoline derivative, their preparation and their use as adenosine receptor antagonists” (priority 1998, dated 2000).

Protein sequences, listed by entry. Tags and fused reporters are not part of them.
UniProt P25099, whole entry: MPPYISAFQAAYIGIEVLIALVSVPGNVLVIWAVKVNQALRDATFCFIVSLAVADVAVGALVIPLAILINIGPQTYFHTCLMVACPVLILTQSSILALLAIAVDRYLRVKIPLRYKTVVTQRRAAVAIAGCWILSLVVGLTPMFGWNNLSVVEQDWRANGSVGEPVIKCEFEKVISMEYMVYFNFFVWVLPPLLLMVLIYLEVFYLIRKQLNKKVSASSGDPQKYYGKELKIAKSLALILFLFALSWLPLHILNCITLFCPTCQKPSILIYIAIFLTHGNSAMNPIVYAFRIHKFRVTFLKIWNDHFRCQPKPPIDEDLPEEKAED
UniProt P0DMS8, whole entry: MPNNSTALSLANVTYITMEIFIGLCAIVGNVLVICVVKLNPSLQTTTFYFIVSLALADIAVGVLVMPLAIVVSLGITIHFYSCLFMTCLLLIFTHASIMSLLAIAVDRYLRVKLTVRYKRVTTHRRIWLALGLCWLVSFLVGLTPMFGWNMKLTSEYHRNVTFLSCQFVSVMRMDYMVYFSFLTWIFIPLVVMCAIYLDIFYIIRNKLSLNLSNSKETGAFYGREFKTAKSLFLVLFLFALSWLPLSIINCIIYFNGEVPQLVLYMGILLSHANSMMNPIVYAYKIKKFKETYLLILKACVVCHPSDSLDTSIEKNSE
UniProt P30543, whole entry: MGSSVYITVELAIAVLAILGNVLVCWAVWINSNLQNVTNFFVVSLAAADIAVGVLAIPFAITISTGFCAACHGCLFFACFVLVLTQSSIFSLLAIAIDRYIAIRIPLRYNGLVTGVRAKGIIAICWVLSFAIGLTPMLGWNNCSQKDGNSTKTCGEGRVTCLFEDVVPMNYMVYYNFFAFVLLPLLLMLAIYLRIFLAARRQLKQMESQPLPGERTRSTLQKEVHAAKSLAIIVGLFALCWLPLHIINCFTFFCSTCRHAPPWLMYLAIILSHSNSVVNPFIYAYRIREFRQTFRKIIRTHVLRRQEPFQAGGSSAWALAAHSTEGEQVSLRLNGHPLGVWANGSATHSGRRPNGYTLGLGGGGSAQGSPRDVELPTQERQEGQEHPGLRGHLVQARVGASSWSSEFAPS

In assay [1] the target is A1 receptors (Rattus norvegicus, UniProt P25099). In words: biochemical. It counts as binding.
Assay [2] has as its target T1, human A3 receptors (Homo sapiens, UniProt P0DMS8).
T1 construct: expressed in transfected cells; host or cells: HEK-293 cells (membranes)
In words: radioligand binding, displacement of specific [125I]AB-MECA binding at human A3 receptors expressed in HEK-293 cells. Conditions: Table 3, HEK-293 membranes, read-out: Ki hA3.

Assay [3] addresses T2, A2a receptors (Rattus norvegicus, UniProt P30543).
T2 construct: Displacement of specific [^3 H]; from tissue; host or cells: rat striatal membranes
In words: radioligand binding, displacement of specific [3H]CGS 21680 binding in rat striatal membranes. Conditions: [3H]CGS 21680, rat striatal membranes.

Read-outs that look alike come from different tables or passages of the source.

On to `COc1ccc(-c2oc3cc(OC)cc(OC)c3c(=O)c2OC)c(OC)c1` [Compound 6, 2',3,4',5,7-Pentamethyloxyflavone], for which the Ki is 27.6 ± 7.5 µM in assay [1] (Table 3, [3H]PIA, rat brain membranes, read-out: Ki rA1); 2.65 µM in assay [2]; 46.7 ± 2.7 µM in assay [3] (Table 3, read-out: Ki rA2a).

Take `CCCOc1c2ccoc2cc2oc(/C=C/c3ccccc3)cc(=O)c12` [Compound 21, 4-propyloxy-7-trans-styryl-visnagin]: the Ki in assay [1] (Table 5, [3H]PIA, rat brain membranes, read-out: Ki rA1) is 40 ± 3.5 µM.

In the case of `O=c1cc(-c2ccccc2)oc2cccc(O)c12` [Compound 25, reference compound], the Ki in assay [1] (Table 6, [3H]PIA, rat brain membranes, read-out: K2 (rA1)) is 2.17 ± 0.06 µM.

Turning to `COC(=O)C1=C(C)NC(C)=C([N+](=O)[O-])C1c1ccccc1C(F)(F)F` (stereo not drawn) [Compound 69, reference compound], the Ki in assay [3] (Table 9, read-out: Ki rA2A) was 35.1 ± 10.1 µM.

Regarding `COC(=O)C1=C(C)NC(C)=C([N+](=O)[O-])C1c1ccccc1C(F)(F)F` (stereo not drawn) [Compound 70, reference compound], the Ki in assay [3] (Table 9, read-out: Ki rA2A) is 86.3 ± 28.4 µM.

In the case of `O=C(CCc1ccccc1)Nc1nc2ccc(Cl)cc2c2nc(-c3ccco3)nn12` [Compound 160], in assay [1] (read-out: Ki rA1), the Ki was 0.0452 ± 0.0075 µM.

In the case of `Nc1ccc(CC(=O)Nc2nc3ccc(Cl)cc3c3nc(-c4ccco4)nn23)cc1` [Compound 163], the Ki in assay [1] (Ki rA1) amounted to 0.03 µM.
